Values of other authors in US8415285B2, “Composition for the prevention or removal of insoluble salt deposits” (Ecover Coordination Center N.V., priority 2010, dated 2013).

Details: cited from earlier work

## sulfuric
  Solubility calcium salt g/100 ml: 0.3 g/100 ml
